scFv variants of Ab-14 (heavy chain) against a SARS-CoV-2 spike peptide

Binding partner: SARS-CoV-2 spike HR2 peptide, sequence PDVDLGDISGINAS.

The variants keep the light chain, the linker and the frameworks of Ab-14 (scFv order VH, the linker GGGGSGGGGSGGGGS, VL).
VH: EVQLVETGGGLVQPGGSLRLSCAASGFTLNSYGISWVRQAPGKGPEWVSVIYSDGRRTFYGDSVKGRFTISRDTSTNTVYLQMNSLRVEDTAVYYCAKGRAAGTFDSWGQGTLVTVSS
VL: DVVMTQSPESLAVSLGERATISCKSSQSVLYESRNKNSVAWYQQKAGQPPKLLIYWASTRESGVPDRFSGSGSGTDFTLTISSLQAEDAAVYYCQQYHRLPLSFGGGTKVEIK

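Designed CDR sequences, proposed from the first random library and measured here. Several design methods are mixed in this list. AlphaSeq pools MATa yeast showing the antibodies with MATalpha yeast showing the peptide. Binding brings cells together so that they mate, and sequencing counts the barcode pairs among the diploids. Scores were corrected for input abundance and mapped to Kd with protein pairs of known affinity run in the same pool. There are six technical replicates.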

Variants are written as CDR1, CDR2 and CDR3 of the heavy chain (limits as in the source). Parent: GFTLNSYGIS, VIYSDGRRTFYGDSVK, GRAAGTFDS. This list holds designs with more than six substitutions. Affinities are written as log10 Kd with Kd in nM; a lower number is a better binder. Replicates are averaged; those with no signal do not enter the mean. A pair that was not seen in that replicate is written "nd"; this usually means weak binding, but a binder can also be missed. The parent sequence was in this pool as ten entries: three were never detected, three once, and four in most replicates, with averages from 0.34 to 2.37.

For GDGLKEYGIS | VIYADGMRESYVKDVK | GQTGGTFVL, the assay gave nd, nd, nd, nd, nd, nd. Variant GFDLNEYGIS | VIYADGKRTAYVDSVK | GENAGTFDL showed -0.04, -0.22, -0.54, -0.35, -0.41, -0.11 (mean -0.28). With GFDLNEYGIS | VIYADGRRTQYIDSVK | GNEAGTFDA the result was -0.57, -0.38, 0.63, -0.65, -0.21, -0.66 (mean -0.31). For GFDLNEYGIS | VIYADGKRTAYANSVK | GQVAGTFDV, the assay gave 0.52, -0.50, 0.04, 0.25, 0.32, 1.62 (mean 0.37). For GFDLNEYGIS | VIYADGMRTAYADDVK | GENAGTFVV, the assay gave nd, nd, 2.14, nd, nd, nd.

With GFHLDEYGIS | VIYADGKRVVYTNDVK | GELEGGFVI the result was nd, nd, nd, nd, nd, nd. Variant GFDIEEYGIS | VIYADGRRKAYADSVK | GIDVYGKVM showed nd, nd, nd, nd, nd, nd. Variant GFDIEEYGIS | VIYADGQRKSYINSFK | GQSNGTGMY gave nd, 2.81, nd, nd, nd, nd. With GFNLDEYGIS | VIYADGMRTFYADSVK | GEHAGTFDT the result was 0.07, -0.04, -0.23, 0.16, 0.09, -0.04 (mean 0.00). Variant GFDLEEMGVS | VIYHDGIRTAYKQKVK | GQAAGTFDL showed nd, nd, nd, nd, nd, nd.

Variant GDSLEEYGIS | VIYADGRRTAYQESVK | GLYAGMLDV showed nd, nd, nd, nd, nd, 3.18. Variant GFDLNEYGIS | VIYADGKRTSYIDSVK | GNVAGTFDT showed 0.40, -0.10, 0.25, 0.28, -0.24, 1.26 (mean 0.31). Variant AFDIEDYGIS | VIYADGVRAMYKESVK | GGIAGTFEI gave 2.60, 3.28, 2.66, 2.77, 2.75, 3.39 (mean 2.91). Variant GFDLNEYGIS | VIYADGVRTFYADSVK | GQNAGTFDI showed -0.23, -0.16, -0.09, -0.40, -0.28, -0.22 (mean -0.23). Variant GFDLNEYGIS | VIYADGMRTAYVDSVK | GQNAGTFDM showed -0.37, -0.39, -0.65, -0.58, -0.45, -0.31 (mean -0.46).

Variant GFDLDEYGIS | VIYADGMRTAYVDSVK | GNNAGTFDV gave -0.19, -0.68, -0.68, -0.70, -0.74, -0.90 (mean -0.65). With GFDLGEQGIS | VIYADGLRTAYATSFK | GEQGGFYGD the result was nd, nd, nd, nd, nd, nd. With GFDLNEYGIS | VIYADGKRTVYADSVK | GTNAGTFDV the result was -0.31, -0.34, -0.30, -0.47, -0.59, -0.30 (mean -0.39). With GFSLDEYGIS | VIYADGVRKHYMDSVK | GNIAGTLFA the result was 0.07, 1.14, 0.12, 0.47, 0.13, 0.04 (mean 0.33). Variant GFDLNEYGIS | VIYADGSRTAYADKVK | GNVAGTFDV showed -1.00, -1.11, -0.64, -0.96, -1.20, -0.74 (mean -0.94).

Variant GFDLNEYGIS | VIYADGMRTYYADSVK | GANAGTFDV showed -0.73, -0.80, -0.98, -0.79, -1.08, -0.01 (mean -0.73). Variant GEDLDEYGVS | VIYADGIRSTYADAVK | GKHGAAFFV gave nd, nd, nd, nd, nd, nd. For GFNLDEYGIS | VIYADGRRTFYSDSVK | GEVAGTFDL, the assay gave -0.43, -0.05, -0.58, -0.69, -0.64, -0.31 (mean -0.45). With GFDLMEYGVS | VIYADGQRAFYTDSVK | GKGAGIALI the result was 1.31, 1.65, 1.31, 2.40, 1.72, 2.04 (mean 1.74). For GDNLDEYGIS | VIYADGHRTAYSDPVK | GEYGVTVGQ, the assay gave nd, nd, nd, nd, nd, nd.

Variant GFDLNEYGIS | VIYADGVRTAYADDVK | GQVAGTFDL gave -0.51, -0.30, -0.51, -0.52, -0.08, -0.32 (mean -0.37). With GFDLNEYGIS | VIYADGRRTAYADSVK | GQVAGTFDV the result was -0.11, -0.54, -0.51, -0.37, -0.84, -0.16 (mean -0.42). For GFQINEYGIS | VIYADGMRAGYADDVK | GSKDGNIIG, the assay gave nd, nd, nd, nd, nd, nd. Variant GFEIQEYGIS | VIYADGRRTAYAEQVK | GTMGGTFST gave 1.32, 1.04, 1.05, 0.94, 1.12, 0.84 (mean 1.05). For GFGLGEYGIS | VIYADGTRTAYVTKVK | GHIAGMFFT, the assay gave nd, nd, nd, nd, nd, nd.

With GFDLEEFGIS | VIYADGRRTQYTANVK | GGKSGDFFM the result was nd, nd, nd, nd, nd, nd. Variant GFDLNEYGIS | VIYADGKRTAYTDSVK | GNVAGTFDL showed -0.30, -0.40, 0.05, -0.10, -0.02, -0.18 (mean -0.16). With GFDLNEYGIS | VIYADGSRTAYSDSVK | GNEAGTFDV the result was -0.13, -0.15, -0.11, -0.41, 0.22, -0.23 (mean -0.13). Variant GFDLNEYGIS | VIYADGRRTAYADSVK | GETAGTFDM showed -0.32, -0.41, -0.56, -0.67, -0.79, -0.30 (mean -0.51). Variant GFDLNEYGIS | VIYADGRRTFYADSVK | GTTAGTFDQ showed -0.42, -0.47, -0.39, -0.91, -0.56, -0.05 (mean -0.46).

The 2 strongest on average among those seen in every replicate, once more:

CDR-H1	CDR-H2	CDR-H3	log10 Kd, replicates	mean, log10 nM
GFDLNEYGIS	VIYADGSRTAYADKVK	GNVAGTFDV	-1.00, -1.11, -0.64, -0.96, -1.20, -0.74	-0.94
GFDLNEYGIS	VIYADGMRTYYADSVK	GANAGTFDV	-0.73, -0.80, -0.98, -0.79, -1.08, -0.01	-0.73

The range of this assay differs from that of the first round, and the authors advise against merging the two. The authors averaged sequences with at least three values out of six and counted those with two or fewer as poor binders. Three control strains display no target. For all heavy chain designs, 1% of the pairings with them gave a signal, with a median of 2.08 and one signal in twenty below 0.84, so weak values seen in few replicates may be background.

Source: Li et al. 2023 (doi:10.1038/s41467-023-39022-2), MIT Lincoln Laboratory and A-Alpha Bio; data file from the FLAb repository.